Values quoted from earlier work in US8221566B1.

Tested on: bacteria
Settings: compared with common acid species

## hydrogen chloride
  Bactericidal activity: among the poorest bactericidal activities of common acid species
